Test results reported in patent publication US20030149005A1, “24-sulfur-substituted analogs of 1alpha, 25-dihydroxy vitamin D3” (priority 2001, published 2003).

Molecular target: T1, CYP24 (Homo sapiens, UniProt Q07973)
T1 construct: When the HPK1A-ras cells are 80-90% confluent, add 1 μL 10^−5 M 1,25(OH)2D3 to 1 mL medium; endogenous in cells; host or cells: HPK1A-ras cells induced with 10^-8 M 1,25(OH)2D3
T1 sequence (Q07973 36-514): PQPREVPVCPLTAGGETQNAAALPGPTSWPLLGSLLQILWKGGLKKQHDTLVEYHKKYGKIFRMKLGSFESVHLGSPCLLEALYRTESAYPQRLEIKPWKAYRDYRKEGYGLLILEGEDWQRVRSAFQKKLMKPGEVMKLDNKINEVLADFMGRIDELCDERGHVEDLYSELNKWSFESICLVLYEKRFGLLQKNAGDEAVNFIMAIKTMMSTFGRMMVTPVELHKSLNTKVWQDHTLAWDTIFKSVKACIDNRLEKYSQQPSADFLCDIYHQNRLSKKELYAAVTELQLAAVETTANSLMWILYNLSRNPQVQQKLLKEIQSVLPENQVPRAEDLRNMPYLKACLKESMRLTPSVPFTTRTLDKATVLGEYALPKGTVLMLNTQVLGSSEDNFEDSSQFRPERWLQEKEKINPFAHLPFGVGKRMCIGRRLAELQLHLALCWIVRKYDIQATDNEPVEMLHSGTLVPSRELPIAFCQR
Experiment: CYP24 enzyme assay (induced HPK1A-ras cells)
Type: cell-based
Conditions: [3H]-1,25(OH)2D3 substrate
Description: CYP24 Enzyme Assay (Induced KPK1A-ras Cells)
(i) Material and Reagents:
Saturated KCl: KCl 30 g, H2O400 ml
1. Induction of HPK1A-ras cells (The day before assay)
When the HPK1A-ras cells are 80-90% confluent, add 1 μL 10^−5 M 1,25(OH)2D3 to 1 mL medium in the plate (final concentration is 10^−8 M).
2. Preparation of cell suspension
After 18 to 20 hours induction, remove the medium and wash the cell twice with PBS. Then tripsinize the cells from plate, centrifuge (2,000 rpm, 5 min) and suspend cells pellet in DMEM medium+1%BSA.
Count the cells and adjust cells density to 250,000/150 μL, add 150 μL cell suspension to each well in 48-well plate. (including 3 well as no cell control, and 3 well cells without drug or inhibitor as control).
3. Add 25 μL ketoconazole (final concentration 10^−5 M, 10^−6 M, 10^−7 M, 10^−1 M) or drugs into each designated well. Keep the plate in 37° C. for 10 min.
4. Preparation of substrate
Take certain amount of DMEM+1%BSA medium (25*Well number+200) μL to a tube, add certain amount of 3H-1,25(OH)2D3 (well number+2) μL and certain amount of 100 mM DPPD (well number/5) μL and mix them by vortex.
Add 25 mL substrate to each well, incubate the plate at 37° C. for 3 hour.
Add 25 mL substrate to counting plate (2 well) as a total count.
6. Lipid extraction and counting
Add 500 μL methanol to each well to stop the reaction, transfer them to tube […]

**Q.** For `C=C1/C(=C\C=C2/CCC[C@]3(C)[C@@H]([C@H](C)CCS(=O)(=O)c4ccccc4)CC[C@@H]23)C[C@@H](O)C[C@@H]1O` [I(a)], which IC50 is on record?
**A.** Its IC50 is 28 nM.
